Experiment [1] addresses GSK3α TYR 279 (Homo sapiens (Human), UniProt P49840). In words: GSK-3α p-TYR inhibition assay (western blotting of Jurkat cells). The following applies: read-out: GSK3a pTYR 279: IC50, compound incubated o/n, western blot.
The subject of experiment [2] is β-catenin dependent TCF/LEF transcriptional activity. In words: β-catenin stabilization protocol (β-lactamase reporter assay in Jurkat cells). The following applies: read-out: Beta Catenin IC50, 460/530 ratio, 50% of the maximum effect. An excerpt: GSK-3 phosphorylation of β-catenin targets it to the proteosome for degradation. Inhibition of GSK-3 results in accumulation of β-catenin in the cytosol of cells which through interaction with the transcription factor TCF/LEF translocates to the nucleus and drives the transcription of Wnt-dependent genes. The assay is designed to determine the level of β-catenin dependent TCF/LEF transcriptional activity in a quantitative manner through the use of a β-lactamase reporter assay in Jurkat cells dosed with a compound.
Jurkat β-catenin cells are starved overnight in assay media (1% FBS, 1× Penstrep, RPMI) in the flask. The next day Jurkat β-catenin cells are seeded in 96 well flat bottom plates at a density of 50,000 cells/well in assay media in a volume of 100 ul. The compound is added to the well at a final DMSO concentration of 0.75% and incubated at 37° C. o/n. The next day, 20 uL of 6× CCF4 dye is added to the wells and incubated at room temperature for 1-2 hours. Plates are read on the Cytofluor 4000 series multiwell plate reader and the 460/530 ratio is determined. The GSK-3 IC50 for induction of β-catenin is determined by plotting the 460/530 ratio against the concentration of compound (Log scale) and using the equation of the slope to calculate the point at which the ratio is 50% of the maximum effect.
For orientation: Reporter assays use an easily measured gene product as a stand-in for the process of interest.

Amino acid sequences for entries named in this document (tags omitted).
UniProt P49840, whole entry: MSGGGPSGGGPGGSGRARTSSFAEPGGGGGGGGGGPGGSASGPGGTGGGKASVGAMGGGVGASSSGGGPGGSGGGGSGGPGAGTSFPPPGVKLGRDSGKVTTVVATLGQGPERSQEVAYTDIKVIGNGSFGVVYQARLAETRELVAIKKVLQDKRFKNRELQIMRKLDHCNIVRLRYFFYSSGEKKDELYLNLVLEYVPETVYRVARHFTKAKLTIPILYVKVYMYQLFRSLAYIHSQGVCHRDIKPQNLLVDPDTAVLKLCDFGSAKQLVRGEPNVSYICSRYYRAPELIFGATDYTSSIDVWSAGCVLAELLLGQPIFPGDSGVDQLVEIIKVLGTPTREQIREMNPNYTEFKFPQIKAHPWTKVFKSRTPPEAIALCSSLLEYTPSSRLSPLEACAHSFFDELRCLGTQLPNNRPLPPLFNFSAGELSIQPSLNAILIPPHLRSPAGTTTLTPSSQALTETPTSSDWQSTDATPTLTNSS
UniProt P49841, whole entry: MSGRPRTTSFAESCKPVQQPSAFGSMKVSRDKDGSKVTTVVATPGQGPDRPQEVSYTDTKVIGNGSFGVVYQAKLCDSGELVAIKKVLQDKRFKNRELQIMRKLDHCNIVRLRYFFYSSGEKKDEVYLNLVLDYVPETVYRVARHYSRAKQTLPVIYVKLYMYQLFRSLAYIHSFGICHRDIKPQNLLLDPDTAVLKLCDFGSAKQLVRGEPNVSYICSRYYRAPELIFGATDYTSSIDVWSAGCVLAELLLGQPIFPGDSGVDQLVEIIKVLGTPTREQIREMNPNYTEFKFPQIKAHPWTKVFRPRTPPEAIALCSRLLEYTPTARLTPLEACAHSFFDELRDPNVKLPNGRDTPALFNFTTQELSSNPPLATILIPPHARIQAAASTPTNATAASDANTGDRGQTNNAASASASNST

Experiment [3] has as its target GSK3β TYR 216 (Homo sapiens (Human), UniProt P49841). In words: GSK3β p-TYR inhibition assay (western blotting of Jurkat cells). Particulars: read-out: GSK3b pTYR 216: IC50, compound incubated o/n, western blot. A general note: Immunoblotting shows a protein as a band on a membrane.

As for `Cc1cc(Nc2n[nH]c3ncc(F)cc23)nc(C23CC4CC(CC(C4)C2)C3)n1`, the IC50 came to 2 nM in experiment [1], 3320 nM in experiment [2] and 20 nM in experiment [3].

Regarding `Cc1nc(C2CCCCCC2)nc(Nc2n[nH]c3ncc(F)cc23)c1C`, the values for the IC50 in experiment [1], in experiment [2] and in experiment [3] were 3 nM, 3700 nM and 83 nM, respectively.

These data come from patent publication US8664219B2, “Aminopyrimidines useful as inhibitors of protein kinases” (Vertex Pharmaceuticals Incorporated, priority 2007, dated 2014).
